Source: patent US20170216355A1, “Methods and Compositions for Enhancing T Cell Function and Survival” (Augusta University Research Institute, Inc., priority 2016, published 2017)

The chains behind the UniProt entries cited, without tags or fusion partners.
UniProt P42338, whole entry, species assumed: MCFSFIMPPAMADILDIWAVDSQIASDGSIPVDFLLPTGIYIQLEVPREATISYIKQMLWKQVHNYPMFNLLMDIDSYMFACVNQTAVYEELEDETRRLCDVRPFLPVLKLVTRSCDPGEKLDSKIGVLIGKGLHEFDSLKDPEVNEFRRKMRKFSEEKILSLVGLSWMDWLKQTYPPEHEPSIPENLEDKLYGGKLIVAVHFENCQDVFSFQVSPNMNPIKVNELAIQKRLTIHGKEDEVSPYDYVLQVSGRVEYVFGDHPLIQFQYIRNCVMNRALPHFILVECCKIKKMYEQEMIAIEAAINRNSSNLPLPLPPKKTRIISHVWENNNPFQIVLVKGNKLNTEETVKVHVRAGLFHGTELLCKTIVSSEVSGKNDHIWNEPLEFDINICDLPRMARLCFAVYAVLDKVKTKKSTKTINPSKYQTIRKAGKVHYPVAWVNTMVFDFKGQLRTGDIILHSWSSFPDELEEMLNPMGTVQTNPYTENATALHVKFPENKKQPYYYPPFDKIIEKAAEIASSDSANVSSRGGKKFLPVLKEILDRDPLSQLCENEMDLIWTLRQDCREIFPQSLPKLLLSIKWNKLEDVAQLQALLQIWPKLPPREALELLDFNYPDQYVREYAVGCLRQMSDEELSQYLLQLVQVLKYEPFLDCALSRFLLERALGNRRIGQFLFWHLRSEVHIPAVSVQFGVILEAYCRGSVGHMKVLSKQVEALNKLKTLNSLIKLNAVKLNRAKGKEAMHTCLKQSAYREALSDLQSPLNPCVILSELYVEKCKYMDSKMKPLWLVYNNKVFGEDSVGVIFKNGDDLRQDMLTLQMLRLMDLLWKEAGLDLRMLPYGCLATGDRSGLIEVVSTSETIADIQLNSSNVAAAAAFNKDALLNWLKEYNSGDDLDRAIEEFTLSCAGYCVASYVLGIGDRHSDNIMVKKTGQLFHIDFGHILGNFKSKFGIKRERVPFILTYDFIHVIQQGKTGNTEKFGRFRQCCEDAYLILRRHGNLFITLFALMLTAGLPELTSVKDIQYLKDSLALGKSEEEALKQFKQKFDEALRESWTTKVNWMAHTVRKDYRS

Columns and labels:
[1] = test system: CD8 T cells from pMel-1 mice; assay: Proliferation assay (VCT dye dilution) and fold expansion of CD8 T cells; assay type: cell-based, mouse; details: after 3 days of stimulation
Description: CD8 T cells from pMel-1 mice were activated in vitro as previously described^5. […] Cells were cultured in RPMI 1640 (Lonza) supplemented with 10% FBS, penicillin (100 U/mL), streptomycin ([…]), 0.1% β-mercaptoethanol (Life Technologies, Invitrogen) and IL-2 (100 U/ml) (Peprotech) at 37° C. with 5% CO2. pMel-1 cells were cultured with or without the different PI3K inhibitors. The concentration of the inhibitors was maintained throughout the culture by changing the media every 48-72 hours. […] The proliferation of CD8 T cells was assessed via VCT dye dilution (day 3) using an LSRII SORP with HTS Flow Cytometer (BD Biosciences). The data were analyzed using FlowJo 10 (Tree Star). […] Cells were stained with the following surface marker antibodies (BD Biosciences): APC-Cy7 labeled anti-CD8, FITC labeled anti-Vβ13, PE labeled anti-CD62L, APC labeled anti-CD44, PE-CF594 labeled anti-CD127, APC labeled anti-KLRG-1 in addition to the viability stain 7AAD. All the analyses were performed on viable (7AAD−), Vβ13+CD8+ T cells.

p110β = p110β (Homo sapiens, UniProt P42338); details: cited from earlier work

Compound	proliferation of CD8 T cells (VCT dilution) [1]	proliferation of CD8 T cells (VCT dilution) ([1]; listed as GDC)	IC50 (p110β)
CS(=O)(=O)N1CCN(Cc2cc3nc(-c4cccc5[nH]ncc45)nc(N4CCOCC4)c3s2)CC1 [GDC-0941]	inhibited in a dose-dependent manner	slightly inhibited	–
Cc1cc(C(C)Nc2ccccc2)c2nc(N3CCOCC3)cc(=O)n2c1 (stereo not drawn) [TGX-221]	–	–	5 nM
